Laboratory results published in ChEMBL document CHEMBL1128040, “Acyl CoA:cholesterol acyltransferase (ACAT) inhibitors: heterocyclic bioisosteres for the urea group in DuP 128” (Bioorg Med Chem Lett, 1995).

Biological target: T1, Sterol O-acyltransferase 1 (Mus musculus, UniProt Q61263)
T1 sequence (Q61263 whole entry): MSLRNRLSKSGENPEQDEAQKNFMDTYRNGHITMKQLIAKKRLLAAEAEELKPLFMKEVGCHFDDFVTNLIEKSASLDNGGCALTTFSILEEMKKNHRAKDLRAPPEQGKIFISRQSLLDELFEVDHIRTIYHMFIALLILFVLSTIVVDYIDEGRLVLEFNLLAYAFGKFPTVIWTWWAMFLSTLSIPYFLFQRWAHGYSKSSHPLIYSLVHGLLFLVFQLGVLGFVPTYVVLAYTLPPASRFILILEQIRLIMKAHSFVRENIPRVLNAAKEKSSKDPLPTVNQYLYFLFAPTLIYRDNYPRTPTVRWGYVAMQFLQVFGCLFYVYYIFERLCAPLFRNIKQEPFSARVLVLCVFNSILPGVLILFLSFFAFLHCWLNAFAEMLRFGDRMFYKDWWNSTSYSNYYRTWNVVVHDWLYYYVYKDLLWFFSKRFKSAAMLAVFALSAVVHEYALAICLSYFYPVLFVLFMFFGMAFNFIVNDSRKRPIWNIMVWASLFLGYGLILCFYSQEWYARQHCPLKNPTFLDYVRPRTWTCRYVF
Test: Inhibition of Acyl coenzyme A:cholesterol acyltransferase in J774 Macrophage cell culture
Assay type: cell-based

Compound Cc1cc(C)n(CCCCCSc2nc(-c3ccccc3)c(-c3ccccc3)[nH]2)n1 has an IC50 of 90 nM.
